In test [1] the target is BaF3 TELJAK2 cells (BafT_J2) (Homo sapiens, UniProt O60674). The experiment in a line: Cellular screening, BaF3 TEL:JAK2 cells, Alamar Blue. Conditions: read-out: BafT_J2 IC50_nM, 40 hr. As for the experimental part: (§1) For screening purposes, compounds were diluted in 96 well plates at a concentration of 20 μM. Plates were warmed at 37° C. for 30 minutes before the assay was performed.
(§2) The coding region encompassing nucleotides 1-487 of TEL was amplified by PCR using the oligonucleotides STEL (5′-GGAGGATCCTGATCTCTCTCGCTGTGAGAC-3′) [SEQ ID NO 14] and 3TEL (5′-AGGC GTCGACTTCTTCTTCATGGTTCTG-3′) [SEQ ID NO 15] and U937 mRNA as a template. A […] restriction site was incorporated into the STEL primer, and a Sal I restriction site was incorporated into the 3TEL primer. The regions encompassing the kinase domain of JAK2 (nucleotides 2994-3914; JAK2F 5′-ACGC GTCGACGGTGCCTTTGAAGACCGGGAT-3′ [SEQ ID NO 16]; JAK2R 5′-ATAGTTTAGCGGCCGCTCAGAATGAAGGTCATTT-3′) [SEQ ID NO 17] and JAK3 (nucleotides 2520-3469; JAK3F 5′-GAAGTCGACTATGCCTGCCAAGACCCCACGATCTT-3′) [SEQ ID NO 18] were generated by PCR using Taq DNA polymerase (Gibco/BRL) and […] as a template. A Sal I restriction site was incorporated into the forward primer of JAK2 and JAK3, a Not I site was incorporated into the JAK2 reverse primer and a Xba I site was added to the reverse primer of JAK3. […]
(§3) Compounds to be tested were added (10 μL, 10× final concentration) to a flat bottomed 96-well plate. […] The plates were then read at 544 nm.
On the technique in general: Alamar Blue is a resazurin reagent that responds to reducing activity.

Chains of the proteins cited; added tags and fusions are not shown. Residues count along the entry.
UniProt O60674, whole entry: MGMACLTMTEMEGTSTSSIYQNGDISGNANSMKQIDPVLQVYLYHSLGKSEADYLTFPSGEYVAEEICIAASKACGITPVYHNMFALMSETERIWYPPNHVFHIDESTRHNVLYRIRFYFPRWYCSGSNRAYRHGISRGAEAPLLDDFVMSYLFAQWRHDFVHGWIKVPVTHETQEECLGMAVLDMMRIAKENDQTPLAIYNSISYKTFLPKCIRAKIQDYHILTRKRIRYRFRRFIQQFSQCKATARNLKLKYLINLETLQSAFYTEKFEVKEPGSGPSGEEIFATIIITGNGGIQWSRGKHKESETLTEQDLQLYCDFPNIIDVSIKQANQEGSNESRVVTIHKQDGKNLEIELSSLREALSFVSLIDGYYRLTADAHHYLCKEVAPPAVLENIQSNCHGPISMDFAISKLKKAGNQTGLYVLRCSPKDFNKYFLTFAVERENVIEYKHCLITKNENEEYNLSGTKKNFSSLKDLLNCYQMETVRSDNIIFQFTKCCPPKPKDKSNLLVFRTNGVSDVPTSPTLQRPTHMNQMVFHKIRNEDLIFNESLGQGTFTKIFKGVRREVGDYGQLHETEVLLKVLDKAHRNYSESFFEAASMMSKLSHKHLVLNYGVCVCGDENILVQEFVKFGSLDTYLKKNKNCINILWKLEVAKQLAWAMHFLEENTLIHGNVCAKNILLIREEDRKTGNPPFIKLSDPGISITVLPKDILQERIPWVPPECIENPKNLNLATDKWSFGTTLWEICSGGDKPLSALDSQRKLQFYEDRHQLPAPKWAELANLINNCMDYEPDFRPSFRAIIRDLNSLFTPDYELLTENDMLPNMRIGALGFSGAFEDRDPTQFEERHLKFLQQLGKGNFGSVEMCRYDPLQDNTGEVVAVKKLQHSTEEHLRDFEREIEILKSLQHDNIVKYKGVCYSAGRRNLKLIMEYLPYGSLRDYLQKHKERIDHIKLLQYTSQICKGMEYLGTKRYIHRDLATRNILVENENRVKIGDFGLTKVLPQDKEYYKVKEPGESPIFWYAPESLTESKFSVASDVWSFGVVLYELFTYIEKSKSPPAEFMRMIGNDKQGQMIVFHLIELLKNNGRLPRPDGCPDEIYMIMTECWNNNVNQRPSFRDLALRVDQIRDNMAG
UniProt O60674, 849-1124 limits assumed: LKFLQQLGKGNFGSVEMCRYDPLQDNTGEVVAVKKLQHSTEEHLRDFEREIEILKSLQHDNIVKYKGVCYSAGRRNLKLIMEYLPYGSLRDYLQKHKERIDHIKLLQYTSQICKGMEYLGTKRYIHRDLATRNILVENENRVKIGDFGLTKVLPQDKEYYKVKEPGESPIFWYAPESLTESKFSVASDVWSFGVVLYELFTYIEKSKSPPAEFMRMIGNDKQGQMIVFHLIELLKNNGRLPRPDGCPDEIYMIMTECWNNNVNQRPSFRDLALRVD
UniProt P52333, whole entry: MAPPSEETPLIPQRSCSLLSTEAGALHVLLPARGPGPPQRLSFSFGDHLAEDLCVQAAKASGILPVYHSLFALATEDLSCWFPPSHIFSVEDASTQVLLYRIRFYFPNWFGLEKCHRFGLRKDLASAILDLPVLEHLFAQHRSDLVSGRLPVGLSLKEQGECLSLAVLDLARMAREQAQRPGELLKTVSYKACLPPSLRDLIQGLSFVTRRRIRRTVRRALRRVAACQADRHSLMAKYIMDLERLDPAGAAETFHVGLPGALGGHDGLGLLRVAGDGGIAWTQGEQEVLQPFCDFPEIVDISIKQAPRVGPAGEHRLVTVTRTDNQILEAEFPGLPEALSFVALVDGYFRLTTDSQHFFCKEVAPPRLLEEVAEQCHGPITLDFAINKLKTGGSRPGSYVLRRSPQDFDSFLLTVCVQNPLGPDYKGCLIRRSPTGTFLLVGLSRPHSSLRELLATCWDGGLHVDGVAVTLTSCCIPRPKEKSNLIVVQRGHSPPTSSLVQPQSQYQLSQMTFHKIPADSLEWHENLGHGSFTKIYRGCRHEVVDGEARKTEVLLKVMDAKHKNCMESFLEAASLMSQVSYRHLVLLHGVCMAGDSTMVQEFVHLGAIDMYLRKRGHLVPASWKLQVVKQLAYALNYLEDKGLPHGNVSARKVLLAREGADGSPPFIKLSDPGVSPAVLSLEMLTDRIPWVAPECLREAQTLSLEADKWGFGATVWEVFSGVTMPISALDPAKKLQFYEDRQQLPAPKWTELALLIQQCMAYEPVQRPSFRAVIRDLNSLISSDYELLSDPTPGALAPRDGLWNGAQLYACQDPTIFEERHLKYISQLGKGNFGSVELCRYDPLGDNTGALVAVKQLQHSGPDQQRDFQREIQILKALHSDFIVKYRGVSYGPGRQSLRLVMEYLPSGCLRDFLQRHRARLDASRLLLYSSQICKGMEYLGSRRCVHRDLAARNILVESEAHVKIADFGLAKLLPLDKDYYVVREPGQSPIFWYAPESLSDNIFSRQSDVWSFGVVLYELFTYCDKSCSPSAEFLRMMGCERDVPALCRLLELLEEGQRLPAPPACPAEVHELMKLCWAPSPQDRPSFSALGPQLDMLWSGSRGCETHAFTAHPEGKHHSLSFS
UniProt P52333, 822-1111 limits assumed: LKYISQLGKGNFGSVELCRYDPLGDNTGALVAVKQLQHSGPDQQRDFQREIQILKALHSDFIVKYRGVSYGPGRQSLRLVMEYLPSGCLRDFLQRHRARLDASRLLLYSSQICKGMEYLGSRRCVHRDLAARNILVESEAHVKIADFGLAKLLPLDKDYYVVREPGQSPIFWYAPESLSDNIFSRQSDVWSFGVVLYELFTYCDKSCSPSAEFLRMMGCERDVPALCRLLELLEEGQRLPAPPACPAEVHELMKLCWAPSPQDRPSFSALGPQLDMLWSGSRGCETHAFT
UniProt P23458, 875-1153 limits assumed: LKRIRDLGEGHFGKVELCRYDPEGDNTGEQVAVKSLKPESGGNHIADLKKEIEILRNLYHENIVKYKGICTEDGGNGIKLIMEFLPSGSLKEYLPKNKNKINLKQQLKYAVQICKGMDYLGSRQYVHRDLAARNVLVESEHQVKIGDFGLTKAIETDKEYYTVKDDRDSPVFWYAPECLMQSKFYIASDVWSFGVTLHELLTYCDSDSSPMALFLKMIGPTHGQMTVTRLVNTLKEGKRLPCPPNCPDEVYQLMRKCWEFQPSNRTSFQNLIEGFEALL

In test [2] the test system is CTLL2. The test is described as follows: Cellular screening, CTLL2 cells, Alamar Blue. Conditions: read-out: CTLL2 IC50_nM. On the procedure: (§4) Cell suspensions were prepared by harvesting cells from culture (the cells used in this test were in late log phase growth with high viability.) Cells were diluted in the appropriate growth medium, as described above, to 1.1× final concentration (from 50,000 cell/mL to 200,000 cell/mL, depending on cell line).
(§5) Compounds to be tested were added (10 μL, 10× final concentration) to a flat bottomed 96-well plate. The cellular suspension (90 μL per well) was then added, and the plate incubated for 40 hr at 37° C., 5% CO2. Alamar Blue 10 μL per well was added and the plates returned to the incubator for a further 4-6 hours. The plates were then read at 544 nm.

Test [3] deals with BaF3 TELJAK3 cells (Homo sapiens, UniProt P52333). The experiment in a line: Cellular screening, BaF3 TEL:JAK3 cells, Alamar Blue. To be noted: read-out: BafT_J3 IC50_nM, 40 hr. As for the experimental part:
as §1, §2, §3

In test [4] the target is human JAK2 (Homo sapiens, UniProt O60674). The test is described as follows: Alphascreen tyrosine kinase enzyme assay, JAK2 kinase domain. To be noted: read-out: JAK2 IC50_nM. As for the experimental part: (§6) For screening purposes, compounds (in 100% DMSO) were warmed at 37 degrees for at least 20 minutes before use. A […] stock was initially made in assay buffer, where the final concentration of DMSO was 0.3%. The stocks were then diluted in 384 well Optiplates (Packard) where the final concentration of the compound was […].
The kinase domain of human JAK2 was amplified from U937mRNA using the polymerase chain reaction with the following primers: […]
The JAK2 PCR products were cloned into the pDest20 destination vector (Gibco). The JAK2 plasmid was then transformed into competent DH10Bac cells (Gibco), and the recombinant baculovirus was prepared via Sf9 insect cell transfection.
(§7) Baculovirus preparations from each of the constructs were infected into either one or five liters of Sf9 cells (Invitrogen) grown in SF-900 medium (Invitrogen) to a cell density of approximately 1-2×10^6 cells/ml. Cells were infected with virus at a MOI of 0.8-3.0. Cells were harvested and lysed. Tyrosine kinase domains were purified by affinity chromatography on a glutathione-agarose column (Scientifix Pty. Ltd. catalog #: GSH-200). […]
In general terms: In Alpha technology, singlet oxygen from a donor bead excites a nearby acceptor bead.

For test [5], the system named is BaF3 wild-type cells. The experiment in a line: Cellular screening, BaF3 wild-type cells, Alamar Blue. To be noted: read-out: BAF3wt IC50_nM, 40 hr. On the procedure: as §1
The growth factor dependant myelomonocytic cell line BaF3 bearing the pTET-off plasmid (Clontech) was transfected with either pTELJAK2 or pTELJAK3, and the transfected cells were selected for growth-factor independent cell growth. The BaF3 wild-type cells were cultured in DMEM containing 10% FCS, 10% WEHI 3B conditioned medium. The BaF3 TELJAK cells ([…]) were cultured in DMEM 10% Tet-System Approved FBS (without WEHI 3B conditioned medium).
as §4, §5

In test [6] the target is human JAK1 (Homo sapiens, UniProt P23458). The test is described as follows: Alphascreen tyrosine kinase enzyme assay, JAK1 kinase domain. Conditions: read-out: JAK1 IC50_nM. On the procedure:
as §6
The kinase domain of human JAK1 was amplified from U937mRNA using the polymerase chain reaction with the following primers: […]
The JAK1 PCR products were cloned into the pDest20 destination vector (Gibco). The JAK1 plasmid was then transformed into competent DH10Bac cells (Gibco), and the recombinant baculovirus was prepared via Sf9 insect cell transfection.
as §7

Test [7] has as its target human JAK3 (Homo sapiens, UniProt P52333). The experiment in a line: Alphascreen tyrosine kinase enzyme assay, JAK3 kinase domain. Conditions: read-out: JAK3 IC50_nM. On the procedure: as §6
The kinase domain of human JAK3 was amplified from U937mRNA using the polymerase chain reaction with the following primers: […]
The JAK3 PCR products were cloned into the pDest20 destination expression vector (Gibco). The JAK3 plasmid was then transformed into competent DH10Bac cells (Gibco), and the recombinant baculovirus was prepared via Sf9 insect cell transfection.
as §7

Molecules are shown by their SMILES.

Consider `C=CC(=O)Nc1ccc(Sc2nc(Nc3ccc(C(O)(C(F)(F)F)C(F)(F)F)cc3)ncc2C)cc1`, for which the GI50 in test [1] was less than 20000 nM; in test [3] it was less than 1000 nM. In addition, the IC50 in test [2] is less than 1000 nM; in test [4], greater than 1000 nM; in test [5], less than 20000 nM; in test [6], greater than 1000 nM; in test [7] it was less than 100 nM.

These data come from patent US8846704B2, “Thiopyrimidine-based compounds and uses thereof” (YM Biosciences Austraila Pty Ltd, priority 2007, dated 2014).
